Compounds with a hit are over-represented: about 1.5% of the library has one in this group of screens.
DSG3 Ab inh: inhibitors of pemphigus antibody binding to human desmoglein-3. 310,000 tested, 0.48% active. AID 588358. DSG3-coupled beads, scFv-anti-DSG3-GFP binding, flow cytometry; stronger effect = lower value. binding (percent of control), % at 10 µM. P32926;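 active means binding more than 3 SD below its plate's average and above zero; inconclusive means below that plate limit but binding exactly zero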;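 further: hits lower antibody fragment binding to DSG3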
eIF4H inh: inhibitors of RNA binding by human eIF4H | Q15056 | eIF4H fluorescence polarization binding assay | inhibition, % at 35 µM | 290,000 tested, 0.94% active;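 further: calls also rest on retests at 20 µM and on dose response follow-up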
PABP1 MLLE inh: blocks PAM2 peptide binding to the PABP1 MLLE domain | P11940 | AID 588489 | inhibition, % at 20 µM | GST-MLLE / FITC-PAM2 fluorescence polarization | 360,000 tested, 0.36% active; in the data active means inhibition above about 35%, passing the limit was not always enough;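 further: plate controls were DMSO wells with GST-MLLE for no effect and wells lacking GST-MLLE protein for full effect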
Yeast UUG start: alters start codon recognition fidelity in yeast; S. cerevisiae UUG-firefly luciferase reporter, luminescence/redox ratio; activity score, % at 18.7 µM; actives 0.13% (n = 350,000); AID 602363;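 active = replicate mean at a twofold rise or more, about +100% in these data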;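 also: firefly luciferase made from a UUG start codon reports start codon fidelity; reporter light over untreated wells divided by growth signal over untreated wells; some hits fall short of that in this replicate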
PABP FP inh: PABP-poly(A) binding inhibition | P11940 | PABP-poly(A) RNA binding, fluorescence polarization | calls only at 35 µM | 290,000 tested, 1% active | AID 2014;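 further: calls also rest on retests at 20 µM and on dose response follow-up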
The depositor's hits bear a star; i = inactive; ? = inconclusive; / = not tested or not shown; + = active, no number. Unless noted, how the calls were made is not given here.

Letter code: A = DSG3 Ab inh; B = eIF4H inh; C = PABP1 MLLE inh; D = Yeast UUG start; E = PABP FP inh
C[C@@H]1CCCCO[C@H](CN(C)C(=O)C2CCCCC2)[C@H](C)CN([C@@H](C)CO)C(=O)c2cc(NS(C)(=O)=O)ccc2O1
  A = /; B = /; C = /; D = 16; E = /
Cc1ccc(S(=O)(=O)Nc2ccc3c(c2)CC(=O)N([C@@H](C)CO)C[C@@H](C)[C@@H](CN(C)C)O3)cc1
  A = /; B = /; C = /; D = -20; E = /
N#CC1=C2SCN(c3ccccc3)CN2C(=O)CC1c1c(Cl)cccc1Cl (configuration not stated)
  A = 89; B = -2; C = -6; D = -3; E = i
Cc1ccc(C2CC(=O)N3CN(c4ccc(Br)cc4)CSC3=C2C#N)o1 (configuration not stated)
  A = 115; B = 41*; C = -59; D = -3; E = +
N#CC1=C2SCN(c3ccccc3)CN2C(=O)CC1c1cccs1 (configuration not stated)
  A = /; B = 23*; C = -41; D = -28; E = +
CCOc1ccc(N2CSC3=C(C#N)C(c4ccco4)CC(=O)N3C2)cc1 (configuration not stated)
  A = 100; B = 92*; C = -5; D = -14; E = +
C[C@H](O)C#Cc1cnc2c(c1)C(=O)N([C@@H](C)CO)C[C@H](C)[C@@H](CN(C)C(=O)c1ccc(F)cc1)O2
  A = /; B = /; C = /; D = 9; E = /
CN1[C@H](CO)[C@H]2c3ccccc3N(C(=O)Nc3cc(F)ccc3F)C[C@H]21
  A = /; B = /; C = /; D = -3; E = /
Cc1ccc(S(=O)(=O)Nc2ccc3c(c2)C(=O)N([C@H](C)CO)C[C@H](C)[C@@H](CN(C)S(=O)(=O)c2ccc(Cl)cc2)OCCCC[C@@H](C)O3)cc1
  A = /; B = /; C = /; D = -9; E = /
C[C@H](O)[C@H](O)[C@H]1CNc2nc(N)[nH]c(=O)c2N1
  A = 109; B = /; C = 89*; D = -18; E = /
Oc1ccc(CNc2ccccc2)c2cccnc12
  A = 95; B = 20; C = 41*; D = -26; E = i
Oc1ccc(CNc2ccc(F)cc2)c2cccnc12
  A = /; B = 15; C = 27; D = -21; E = i
Nc1c(C(=O)c2ccccc2)oc2ccc([N+](=O)[O-])cc12
  A = 60*; B = -10; C = 25; D = /; E = i
Nc1c(C(=O)c2ccccc2)oc2ccc(Br)cc12
  A = 90; B = -6; C = -5; D = -5; E = i
C[C@@H]1CN([C@H](C)CO)C(=O)c2cc(C3=CCCC3)cnc2O[C@@H]1CN(C)C(=O)Nc1ccc(C(F)(F)F)cc1
  A = /; B = /; C = /; D = -6; E = /

With a hit mark in PABP FP inh, of those listed so far:
Letter code: A = DSG3 Ab inh; B = eIF4H inh; C = PABP1 MLLE inh; D = Yeast UUG start; E = PABP FP inh
Cc1ccc(C2CC(=O)N3CN(c4ccc(Br)cc4)CSC3=C2C#N)o1 (configuration not stated)
  A = 115; B = 41*; C = -59; D = -3; E = +
N#CC1=C2SCN(c3ccccc3)CN2C(=O)CC1c1cccs1 (configuration not stated)
  A = /; B = 23*; C = -41; D = -28; E = +
CCOc1ccc(N2CSC3=C(C#N)C(c4ccco4)CC(=O)N3C2)cc1 (configuration not stated)
  A = 100; B = 92*; C = -5; D = -14; E = +

(next part)
Letter code: A = DSG3 Ab inh; B = eIF4H inh; C = PABP1 MLLE inh; D = Yeast UUG start; E = PABP FP inh
COc1ccccc1/C=C/C(=O)OCCN1CCOCC1
  A = 99; B = -3; C = 9; D = -15; E = i
COc1ccccc1/C=C/C(=O)OC(C)CN1CCCCC1 (configuration not stated)
  A = 89*; B = 4; C = -4; D = -13; E = i
O=C(NCNC(=O)c1ccccc1)c1ccccc1
  A = 102; B = -3; C = -8; D = /; E = i
O=C(NCSc1ccccc1)c1ccccc1
  A = 105; B = /; C = 42*; D = -33; E = /
C[C@@H]1CN([C@H](C)CO)C(=O)c2cc(NS(=O)(=O)c3ccc(Cl)cc3)ccc2O[C@H]1CN(C)Cc1ccc(-c2ccccc2)cc1
  A = /; B = /; C = /; D = 7; E = /
O=C(Nc1ccc2oc(-c3ccc(Cl)c(Cl)c3)nc2c1)c1ncn[nH]1
  A = 99; B = ?; C = 0; D = -47; E = +
O=C(Nc1ccc2oc(-c3ccccc3F)nc2c1)c1ncn[nH]1
  A = 104; B = 24; C = -7; D = -18; E = i
COCC(=O)Nc1ccc2c(c1)C(=O)N(C)C[C@H](OC)[C@@H](C)CN(C(=O)Cc1ccccn1)[C@H](C)CO2
  A = /; B = /; C = /; D = -5; E = /
CCN1CCc2c(sc(NC(=S)NC(=O)c3ccco3)c2C(N)=O)C1
  A = 99; B = 85*; C = -46; D = -21; E = +
CCC(=O)Nc1sc2c(c1C(N)=O)CCN(Cc1ccccc1)C2
  A = 83; B = 96; C = 3; D = -1; E = +
NC(=O)c1c(NC(=O)Cn2nc(C(=O)O)c3ccccc3c2=O)sc2c1CCC2
  A = 105; B = ?; C = -1; D = -10; E = +
CCCC(=O)NC(=S)Nc1sc2c(c1C(N)=O)CCC2
  A = 104; B = 91; C = 14; D = /; E = +
Cc1cnc(NS(=O)(=O)c2ccccc2)c(C)n1
  A = 66*; B = -6; C = -15; D = -10; E = i
COCCN(C[C@H]1N[C@H](CO)[C@@H]1c1ccc(-c2ccc(F)cc2)cc1)C(C)=O
  A = /; B = /; C = /; D = 0; E = /
c1ccc2c3c([nH]c2c1)C1(CCCCC1)NCC3
  A = 95; B = 2; C = 4; D = -11; E = i
CC12CCCCN1CCCc1c2[nH]c2ccccc12 (configuration not stated)
  A = 108; B = ?; C = 40*; D = 4; E = ?
CN(C)CC(=O)N[C@@H]1C=C[C@H](CC(=O)NCCN2CCCCC2)O[C@H]1CO
  A = /; B = /; C = /; D = 5; E = /
O=C(O)CSC1CC(=O)N(c2cccc(Cl)c2)C1=O (configuration not stated)
  A = 103; B = -10; C = 34; D = -19; E = i
O=C(O)CSC1CC(=O)N(c2ccc(Cl)c(Cl)c2)C1=O (configuration not stated)
  A = /; B = -8; C = 41*; D = -36; E = i
CCCN1[C@@H]2c3ccc(C4=CCCCC4)c(=O)n3C[C@@H]2[C@@H](CO)[C@@H]1C(=O)OC
  A = /; B = /; C = /; D = 15; E = /
O=C(Nc1ccc(S(=O)(=O)Nc2nccs2)cc1)c1ccc(S(=O)(=O)N2CCOCC2)cc1
  A = 98; B = 15; C = 5; D = -15; E = i
O=C(Nc1ccc(S(=O)(=O)Nc2nccs2)cc1)c1ccc(F)c(S(=O)(=O)N2CCOCC2)c1
  A = 97; B = 52*; C = -54; D = -21; E = i
O=C(Nc1ccc(S(=O)(=O)Nc2nccs2)cc1)c1ccc(=O)[nH]c1
  A = 99; B = 73; C = -46; D = /; E = +
Oc1ccccc1C=NN=CC=Cc1ccccc1
  A = 92; B = /; C = -10; D = /; E = /
O=[N+]([O-])c1ccccc1C=CC=NN=Cc1ccccc1O
  A = -3.9*; B = /; C = 5; D = /; E = /
CC1=C2[C@@H](c3ccccc3)OB(O)C[C@@H]2n2c(=O)n(-c3ccccc3)c(=O)n2C1
  A = /; B = /; C = /; D = 15; E = /
CC(NC(=O)/C=C/c1ccco1)c1nc2ccccc2n1Cc1ccccc1F (configuration not stated)
  A = 81*; B = 3; C = 10; D = /; E = i
CCC(=O)NCCCc1nc2ccccc2n1Cc1ccccc1F
  A = 99; B = -9; C = 1; D = 4; E = +
COc1cccc2c(=O)n(CC(=O)Nc3ccccc3F)ccc12
  A = 108; B = ?; C = 2; D = -11; E = +
COc1cccc2c(=O)n(CC(=O)Nc3ccc(F)cc3)ccc12
  A = 101; B = -10; C = 0; D = 1; E = i
c1ccc2nc3[nH]cnc3nc2c1
  A = 101; B = 3; C = 49*; D = -20; E = i
CCN1CCN(C(c2ccc(C(F)(F)F)cc2)c2ccc3cccnc3c2O)CC1 (configuration not stated)
  A = 106; B = 4; C = 41*; D = -28; E = i
CN1CCN(C(c2ccc(C(F)(F)F)cc2)c2cc(Cl)c3cccnc3c2O)CC1 (configuration not stated)
  A = /; B = 3; C = /; D = /; E = i
CCC(=O)Nc1ccc(C(=O)Nc2cccnc2)cc1
  A = 100; B = 52*; C = -12; D = -12; E = +
Cc1ccc(NC(=O)c2cccnc2)cc1C
  A = 16*; B = -5; C = 11; D = -11; E = i
CC(C)NC(=O)Nc1ccc2c(c1)C(=O)N([C@@H](C)CO)C[C@H](C)[C@@H](CN(C)CC1CCCCC1)O2
  A = /; B = /; C = /; D = -5; E = /
COCC(=O)N1C[C@@H](C)[C@H](OC)CN(C)C(=O)c2ccc(NC(=O)c3cc(C)on3)cc2OC[C@H]1C
  A = /; B = /; C = /; D = 2; E = /

Bioassay records from PubChem.
